Results: publication PMC8123621, “Development of Novel Potential Pleiotropic Compounds of Interest in Alzheimer’s Disease Treatment through Rigidification Strategy” (Molecules, 2021)

Chains of the proteins cited; added tags and fusions are not shown. Residues count along the entry.
UniProt P22303, 32-617 isoform P22303-2 limits assumed: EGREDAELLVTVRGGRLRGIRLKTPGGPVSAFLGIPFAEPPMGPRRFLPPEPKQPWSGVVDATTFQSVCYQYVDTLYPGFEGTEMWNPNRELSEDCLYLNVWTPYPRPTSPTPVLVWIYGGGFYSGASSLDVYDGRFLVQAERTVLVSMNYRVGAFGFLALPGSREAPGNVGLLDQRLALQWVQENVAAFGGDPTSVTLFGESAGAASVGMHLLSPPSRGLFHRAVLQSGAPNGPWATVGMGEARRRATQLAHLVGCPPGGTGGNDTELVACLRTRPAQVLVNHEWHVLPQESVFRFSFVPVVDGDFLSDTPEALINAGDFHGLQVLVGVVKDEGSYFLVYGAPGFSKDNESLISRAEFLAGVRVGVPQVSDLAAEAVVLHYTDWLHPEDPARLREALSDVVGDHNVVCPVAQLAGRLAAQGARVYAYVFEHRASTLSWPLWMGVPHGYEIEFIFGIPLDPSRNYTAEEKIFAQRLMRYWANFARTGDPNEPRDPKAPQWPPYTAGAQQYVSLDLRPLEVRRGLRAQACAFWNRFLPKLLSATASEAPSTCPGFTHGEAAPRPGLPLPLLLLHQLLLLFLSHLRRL

Molecular target: T1, hAChE (AChE from human erythrocytes) (Homo sapiens, UniProt P22303)
T1 construct: AChE from human erythrocytes; purchased Sigma Aldrich; host or cells: human erythrocytes (tissue-derived enzyme)
Format: biochemical
Settings: mean ± SEM of three experiments; read-out: hAChE IC50 (nM) (n = 3)
Procedure: The inhibitory activity of novel analogs towards hAChE was evaluated according to the Ellman test.
Inhibitory capacity of compounds on AChE biological activity was evaluated through the use of the spectrometric method of Ellman. Acetylthiocholine iodide and 5,5-dithiobis-(2-nitrobenzoic) acid (DTNB) were purchased from Sigma Aldrich. AChE from human erythrocytes (buffered aqueous solution, ≥500 units/mg protein (BCA), Sigma Aldrich) was diluted in 20 mM HEPES buffer pH 8, 0.1% Triton X-100 such as to have enzyme solution with 0.25 unit/mL enzyme activity. In the procedure, 100 μL of 0.3 mM DTNB dissolved in phosphate buffer pH 7.4 were added into the 96 wells plate followed by 50 μL of test compound solution and 50 μL of enzyme ([…]). After 5 min of preincubation at 25 °C, the reaction was then initiated by the injection of 50 μL of 1 mM acetylthiocholine iodide solution. […] Assays were performed with a blank containing all components except acetylthiocholine, in order to account for non-enzymatic reaction. The reaction slopes were compared and the percent inhibition due to the presence of test compounds was calculated by the following expression: 100 − (vi/v0 × 100) where vi is the rate calculated in the presence of inhibitor and v0 is the enzyme activity.

COc1cc(N)c(Cl)cc1C(=O)CCC1CCN(CC2CCCCC2)CC1 [Donecopride, donecopride, reference compound]
IC50: 16 ± 5 nM
